Target: human NPY2-R (human) (UniProt P49146)

EC50 Y2R: 16 nM
Substance: PYY3-36 (ligand)
